Target: Neutrophil Elastase (Homo sapiens, UniProt P08246)

Amino acid sequences for entries named in this document (tags omitted). Residues count along the entry.
UniProt P08246, 30-267 limits assumed: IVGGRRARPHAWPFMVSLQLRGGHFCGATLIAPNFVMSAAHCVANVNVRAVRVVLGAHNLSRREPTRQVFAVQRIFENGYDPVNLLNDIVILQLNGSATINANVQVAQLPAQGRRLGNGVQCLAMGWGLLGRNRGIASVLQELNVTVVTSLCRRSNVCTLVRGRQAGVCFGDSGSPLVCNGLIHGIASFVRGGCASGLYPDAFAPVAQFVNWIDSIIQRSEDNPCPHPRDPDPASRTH

Structure (SMILES): CC(C)N(CC(=O)NCC(=O)NCC(=O)NCCCOCCOCCOCCCNC(=O)CCCC[C@@H]1SC[C@@H]2NC(=O)N[C@@H]21)C(=O)ON1C(=O)CCC1=O
- Ki: 6 µM

Reference: patent US11104703B2, “Binding compound and uses thereof” (priority 2016, dated 2021)
